Experimental data: patent US11045560B2, “Therapeutic conjugates with sulfated dendrimers for intracellular targeting” (IC DISCOVERY GMBH, priority 2014, dated 2021)

Test system: HT29, HepG2, QGP-1, A431, MCF-7, A2780
Experiment: Inhibition of cell proliferation measured by MTT test
Format: cell-based, human
Conditions: range from different cell lines, peptide-dendrimer conjugates (Table 7)
Procedure: For cytotoxicty measurements, 2×10^5 cells were incubated with 1 ml culture medium containing increasing concentrations of test substances. After 72 hs treatment, cell number, viability and cell diameter as parameter of apoptotic processes were analyzed in a cell counter and analyzer system (CASY®, Schärfe Systems). In addition, drug cytotoxicity was assessed in vitro using the MTT assay (cellular reduction of 3-(4,5-dimethylthiazol-2-yl)-2,5-diphenyltetrazolium bromide) as a test for metabolic activity of the cells. 1×10^4 cells per well were seeded in 96-well plates in 100 μl culture medium containing increasing concentration of the test substance. 10 μl MTT (5 mg/ml in PBS, obtained from Sigma) was added to each well and the plates were incubated for 4 hrs, 24 hrs, 48 hrs or up to 72 h. The resulting formazan product was dissolved with acid isopropanol and the absorbance at a wavelength of 570 nm (Ex570) was read on a Microplate Spectrophotometer (Anthos htII, Microsystems). In a couple of experiments, medium with test substances was removed after 48 hs, cells were counted and identical cell numbers with new medium without test substances were seeded in new plates. MTT assay was performed after further incubation for 72 hours.
Cell culture measurements were performed as described in example 16.

Substance: d02-P7: peptide P7 conjugated to maleimido dendrimer d02 (CPKVVILKKATAYILSVQAEEQKL; conjugated to maleimido dendrimer d02)
- IC50: 1.1 to 1.8 µM
